Data: patent US20130142784A1, “METHOD OF TREATING TUMOR RESISTANT TO HERCEPTIN OR PACLITAXEL USING FOXM1 INHIBITORS AND DETECTING SAME” (The Board of Trustees of the University of Illinois, priority 2010, published 2013)

Tests used:
[1] = system: SKBR3, BT474, and MDA-MB-453 cell lines; assay: colony formation assay with trastuzumab, pBabe vs FoxM1 stable lines; assay type: cell-based, human; conditions: trastuzumab 10 ug/ml continuously for 14-17 days
Procedure: To investigate the effects of FoxM1 overexpression on trastuzumab resistance in breast tumor cells, FoxM1 expression cDNA construct was stably introduced into SKBR3, BT474, and MDA-MB-453 cell lines. All three cell lines have chromosomal amplification of HER2/ErbB2 and only the BT474 cell line expresses estrogen receptor. Drug sensitivity of the FoxM1 stably transfected cell lines was tested by colony formation assay. […] 24 hours later, cells were treated with trastuzumab (10 ug/ml) continuously for 14-17 days. […] Quantification was done using Adobe Photoshop (Lehr et al., 1997, “Application of photoshop-based image analysis to quantification of hormone receptor expression in breast cancer,” J. Histochem Cytochem 45: 1559-65). […] The results provide evidence that FoxM1 confers cells resistance to trastuzumab.

[2] = system: SKBR3, BT474, and MDA-MB-453 pBabe and FoxM1 cell lines; assay: cell cycle analysis by propidium iodide staining and flow cytometry; assay type: cell-based, human
Procedure: The percentage of G1/S arrest in the cell cycle induced by trastuzumab (referred to as HERCEPTIN in the drawings contained herein) was measured by propidium iodide staining followed by flow cytometry (FACS) analysis. Cells were treated with trastuzumab (10 ug/ml) for 72 hours and cell cycle profiles examined. For cell cycle analysis, cells were trypsinized, pelleted, and resuspended in propidium iodide (PI) solution (50 ug/ml PI, 0.1 mg/ml RNaseA, 0.05% Triton-X). After 40 minutes of incubation at 37° C., cells were analyzed using a flow cytometer. Synchronization of MDA-MB-453 cells for cell cycle analysis was done by subjecting the cells to serum starvation (0.2% FBS) for 24 hours, followed by incubating the cells in medium containing 10% FBS for 6 hours, and addition of 5 ug/ml of aphidicolin (Calbiochem) for 16 hours.

[3] = system: SKBR3-pBabe and FoxM1 lines; assay: BrdU incorporation; assay type: cell-based, human; conditions: treated for 72 hours
Procedure: Further, incorporation of BrdU was measured in cells treated with HERCEPTIN (FIG. 1C). 5-Bromo-2-Deoxyuridine (BrDU, obtained from Sigma Chemical Co., St. Louis, Mo.; 10 μM) was added to the culture media. Cells were fixed and stained with mouse anti-BrdU antibody (1:250, Dako, Carpinteria, Calif.) followed by FITC-conjugated anti-mouse antibody (Dako) and DAPI (Molecular Probes/Invitrogen).

[4] = system: FoxM1 and p27 protein levels in SKBR3-pBabe and SKBR3-FoxM1 cells; assay: western blot of FoxM1 and p27 levels; assay type: cell-based, human
Procedure: Cell extracts were prepared in lysis buffer containing 1 mM EDTA, 0.15M NaCl, 0.05M Tris-HCl pH 7.5, and 0.5% Triton-X. Phosphatate Inhibitor Cocktail Set II (200 mM imidazole, 100 mM sodium fluoride, 115 mM sodium molybdate, 100 mM sodium orthovanadat, and 400 mM sodium tartrate, dehydrate, catalog No. 524625, Calbiochem) and protease inhibitor (Roche, catalog No. 11873580001, previously No. 115773860001) were added before each experiment. FoxM1 protein levels were determined by western blot analysis using a rabbit polyclonal antibody against FoxM1 previously described (Major et al., 2004, “Forkhead Box M1B transcriptional activity requires binding of Cdk-cycline complexes for phosphorylation-dependent recruitment of p300/CBP coactivators,” Mol Cell 24: 2649-61). Anti kip1/p27 (1:10,000, BD Biosciences), and anti-Cdk2 (1:200, Santa Cruz Biotech.) antibodies were also used. Quantification was performed using Image J software (NIH).

[5] = system: resistant SKBR3, MDA-MB-453, and BT474 lines; assay: growth of HERCEPTIN resistant lines; assay type: cell-based, human; conditions: after six months continuous culture in 5 ug/ml
Procedure: To determine whether cells resistant to HERCEPTIN could be resensitized to HERCEPTIN treatment, a cell line resistant to HERCEPTIN was generated. Parental SKBR3, MDA-MB-453, and BT474 lines were cultured continuously in 5 ug/ml of HERCEPTIN for six months. […] The source of resistance in these lines was not uniform, as an increase in phosphorylated Akt was only observed in SKBR3 cells. FoxM1 levels in parental and resistant lines were assayed by western blot analysis. Extracts were prepared in lysis buffer containing 1 mM EDTA, 0.15M NaCl, 0.05M Tris-HCl pH 7.5, and 0.5% Triton-X. Phosphatate Inhibitor Cocktail Set II (Calbiochem) and protease inhibitor (Roche) were added before each experiment using the rabbit polyclonal antibody referenced above. Quantification was performed using Image J software (NIH).

[6] = cited from earlier work
[7] = control SKBR3 cells, 10 ug/ml for 24-72 hours or 0.1-10 ug/ml

HERCEPTIN: humanized monoclonal antibody directed to the extracellular domain of HER2/ErbB2
colony number, FoxM1 overexpression compared to pBabe alone [1]: three- to seven-fold increase in colony number | G1 population ([2]; FoxM1-expressing cells, 10 ug/ml): did not exhibit any significant increase | sub-G1 population ([2]; all cell lines, data not shown): None of the cell lines showed an increase | number of cells in G1 ([2]; control pBabe lines, 10 ug/ml): statistically significant increase | BrdU-incorporation ([3]; FoxM1-expressing cells): did not show any significant decrease | reduction in the number of BrdU-positive cells ([3]; SKBR3-pBabe): 35% | p27 levels ([4]; SKBR3-FoxM1 cell lines, high doses): remained low | FoxM1 protein levels [4, 7]: decreased | p27 levels [4, 7]: accumulated | growth rate of resistant cells [5]: grew at the same rate in the presence or absence of HERCEPTIN | efficacy of combinatorial treatment ([6]; combinatorial treatment with microtubule stabilizing drugs such as paclitaxel): approximately 60% | efficacy as a monotherapy ([6]; monotherapy): less than 30%
